Experimental findings from PubChem BioAssay AID463079 (The Scripps Research Institute Molecular Screening Center, 2010) are described below.

Structures are written as SMILES. The list shows a part of the results, in another mix than the full data. Some tests of the compounds listed are not included; inactive here does not mean inactive elsewhere. Active and inactive are the calls of the source.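 The calls were made as follows: active = inhibition above that plate's mean sample inhibition plus 3 SD (cut at about 26% in these data); inactive = the rest.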

The nature of the assay: nonselective Gq signaling inhibition in CHO cells – cell-based, fluorescence, Fluo-8 calcium dye, counter-screen for OX1R antagonist project, primary screen (AID 463079).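 Also: 0% = ATP-challenged DMSO wells and 100% = DMSO wells without ATP.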 The settings on record: parental CHO-K1, ATP-induced calcium, Fluo-8 fluorescence; at 5.6 µM; hits give high values. Put shortly:
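Material: Parental CHO cells | Reagent: ATP | Compound dosing: Single nominal dose of 5.6 µM per compound | Detection: Intracellular calcium via Fluo-8 no-wash fluorescent dye | Read-out: % inhibition of ATP-induced calcium mobilization | Benchmarks: Low control ATP plus DMSO, high control DMSO only | Replicates: Singlicate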
(A counterscreen serves to expose hits that act by an unwanted route or on another target.)
Broadly, the inhibition is the relative decrease from the control value, in per cent. For the compound `CC(C)Oc1ccc(C(=O)NCC2(N(C)C)CCCCC2)cc1`, the inhibition was inactive: -7.85%.

For `CN(C)c1cccc(C(=O)NCC2(N(C)C)CCCCC2)c1`, the inhibition is inactive: -17.5%.

As to `COc1ccc(Br)c(C(=O)NCC2(N3CCCCC3)CCCCC2)c1`, the inhibition is inactive: -29.6%.

Take `O=C(OC1CN2CCC1CC2)C(CO)(c1ccccc1)c1ccccc1` (centres undefined): the inhibition is inactive: -0.27%.

Consider `O=C(NCC1(N2CCCCC2)CCCCC1)c1cccc(Cl)c1`, for which the inhibition was inactive: -11.5%.

Take `COc1ccc(Cl)cc1C(=O)NCC1(N(C)C)CCCCC1`: the inhibition was inactive: -7.51%.

Consider `COc1cccc(C(=O)NCC2(N3CCCCC3)CCCCC2)c1`, for which the inhibition was inactive: -24.1%.

In the case of `COc1cc(C(=O)NCC2(N(C)C)CCCCC2)c([N+](=O)[O-])cc1OC`, the inhibition is inactive: -14.8%.

As for `CN(C)C1(CNC(=O)c2ccc(Br)cc2)CCCCC1`, the inhibition was inactive: -6.73%.

`COc1ccc(C(=O)NCC2(N(C)C)CCCCC2)cc1`: the inhibition is inactive: -10.5%.

Regarding `O=C(NCC1(N2CCCCC2)CCCCC1)c1cccc(Br)c1`, the inhibition was inactive: -28%.

Turning to `CCN1CCCC(OC(=O)C2(O)c3ccccc3C=Cc3ccccc32)C1` (centres undefined), the inhibition was inactive: -10.5%.

As for `Cc1cc(C(=O)NCC2(N3CCCCC3)CCCCC2)ccc1[N+](=O)[O-]`, the inhibition is inactive: -15.8%.

With `O=C(NCC1(N2CCCCC2)CCCCC1)c1cc(F)c(F)cc1Cl`, the inhibition was inactive: -20.4%.

Take `C=CCN1CCN(CCOC(=O)C(O)(c2ccccc2)c2ccccc2)CC1`: the inhibition was inactive: -13.1%.

Consider `CN(C)c1ccc(C(=O)NCC2(N(C)C)CCCCC2)cc1`, for which the inhibition was inactive: -5.93%.

In the case of `CN(C)C1CCCC1OC(=O)C(O)(c1ccccc1)c1ccccc1` (centres undefined), the inhibition was inactive: -8.85%.

For `Cc1ccccc1C(=O)NCC1(N2CCCCC2)CCCCC1`, the inhibition is inactive: -25.7%.

As to `Cc1ccc(C(=O)NCC2(N3CCCCC3)CCCCC2)cc1`, the inhibition is inactive: -13.8%.

As for `COc1cc(SC)ccc1C(=O)NCC1(N(C)C)CCCCC1`, the inhibition was inactive: -13.2%.

With `CCN(CC)CC(C)C(C)OC(=O)C(O)(c1ccccc1)c1ccccc1` (centres undefined), the inhibition was inactive: -16.1%.

As for `CC(C)N1C(=O)CC2(CCN(CCOC(=O)C(O)(c3ccccc3)c3ccccc3)CC2)C1=O`, the inhibition was inactive: -8.35%.

Consider `CN1[C@@H]2CC[C@H]1CC(OC(=O)C(O)(c1ccccc1)c1ccccc1)C2` (some centres undefined), for which the inhibition is inactive: -13.1%.

With `O=C(NCC1(N2CCCCC2)CCCCC1)c1cc([N+](=O)[O-])ccc1Cl`, the inhibition is inactive: -25%.
